This is an account of results in US20120041012A1, “SUBSTITUTED SPIROCYCLIC AMINES USEFUL AS ANTIDIABETIC COMPOUNDS” (priority 2009, published 2012).

The chains behind the UniProt entries cited, without tags or fusion partners.
UniProt P35346, whole entry: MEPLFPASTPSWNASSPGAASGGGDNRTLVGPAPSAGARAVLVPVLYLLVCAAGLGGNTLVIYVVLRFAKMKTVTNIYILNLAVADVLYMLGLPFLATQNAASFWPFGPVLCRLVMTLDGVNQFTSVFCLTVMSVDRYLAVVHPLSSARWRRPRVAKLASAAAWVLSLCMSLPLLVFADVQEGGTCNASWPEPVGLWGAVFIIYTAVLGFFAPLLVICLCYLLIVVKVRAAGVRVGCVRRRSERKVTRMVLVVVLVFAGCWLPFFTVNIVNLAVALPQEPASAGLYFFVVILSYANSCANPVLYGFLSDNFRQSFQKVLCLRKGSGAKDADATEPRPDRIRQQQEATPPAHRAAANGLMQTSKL

The target in experiment [1] is T1, SSTR5 (Homo sapiens, UniProt P35346). As to the kind of experiment: SSTR5 receptor-ligand binding assay, CHO-K1 cell membranes, 125I-SRIF radioligand. The note with it: read-out: SSTR5 Ki; Table 2; tested form: TFA.
Experiment [2] has as its target T1, SSTR5. The experiment can be described thus: Functional assay of SSTR5 mediated cyclic AMP production in SSTR5 expressing CHO cells. The note with it: read-out: SSTR5 (cAMP) IC50; Table 2; FSK plus SS-28; tested form: TFA.

Each structure is given as a SMILES string.

Consider `CC(C)Oc1ccc(-c2ccc(F)c(F)c2F)c(CN2CCC3(CC2)CC(=O)N(c2ccc(C(=O)O)cc2)C3)c1`, for which, at SSTR5 [1], the inhibition constant (Ki) turned out to be 4.2 nM. On SSTR5 [2], the half-maximal inhibitory concentration (IC50) stood at 4.5 nM.
